The values below are quoted from earlier work in patent US20020035131A1, “Regimen and kit for amelioration of premature ejaculation” (Pentech Pharmaceuticals, Inc., priority 1999, published 2002).

Each structure is given as a SMILES string.

For this data set, the system named is serotonin (5-HT) uptake in brain neurons. The settings on record: cited from earlier work.

Take `Fc1ccc([C@@H]2CCNC[C@H]2COc2ccc3c(c2)OCO3)cc1` (relative stereo) [paroxetine, trans-(−)-3-(1,3-benzodioxol-5-yloxy)methyl-4-(4-fluorophenyl) piperidine]: the “inhibition of serotonin (5-HT) uptake in brain neurons” value is listed as “selectively inhibits”.
